Earlier results as cited in paper PMC2812024 (Journal of medicinal chemistry, 2008).

By UniProt entry, the sequences of proteins in these tests, tags left out. Where a name states a change or a piece, a line headed by the entry shows the natural chain unless it says otherwise.
UniProt P33533, whole entry: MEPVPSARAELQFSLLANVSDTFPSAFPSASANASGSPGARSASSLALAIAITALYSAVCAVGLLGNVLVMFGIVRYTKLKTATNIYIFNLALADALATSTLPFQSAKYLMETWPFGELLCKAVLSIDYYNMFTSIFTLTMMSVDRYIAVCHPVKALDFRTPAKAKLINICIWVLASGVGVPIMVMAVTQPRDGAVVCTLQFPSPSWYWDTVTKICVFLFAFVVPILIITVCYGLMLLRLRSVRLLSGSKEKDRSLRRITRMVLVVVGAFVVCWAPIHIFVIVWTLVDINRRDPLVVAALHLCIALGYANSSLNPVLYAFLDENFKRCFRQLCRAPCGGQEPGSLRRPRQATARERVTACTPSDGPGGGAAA
UniProt P32300, whole entry: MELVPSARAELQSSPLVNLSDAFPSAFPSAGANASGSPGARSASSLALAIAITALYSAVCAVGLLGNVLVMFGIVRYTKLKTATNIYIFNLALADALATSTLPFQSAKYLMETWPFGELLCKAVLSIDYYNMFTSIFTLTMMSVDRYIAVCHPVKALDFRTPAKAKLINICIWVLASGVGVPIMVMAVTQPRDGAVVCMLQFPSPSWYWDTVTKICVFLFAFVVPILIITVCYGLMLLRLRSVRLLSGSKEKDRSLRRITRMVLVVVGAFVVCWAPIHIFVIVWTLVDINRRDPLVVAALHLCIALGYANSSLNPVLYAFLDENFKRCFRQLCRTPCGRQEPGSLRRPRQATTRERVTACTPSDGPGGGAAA
UniProt P33535, whole entry: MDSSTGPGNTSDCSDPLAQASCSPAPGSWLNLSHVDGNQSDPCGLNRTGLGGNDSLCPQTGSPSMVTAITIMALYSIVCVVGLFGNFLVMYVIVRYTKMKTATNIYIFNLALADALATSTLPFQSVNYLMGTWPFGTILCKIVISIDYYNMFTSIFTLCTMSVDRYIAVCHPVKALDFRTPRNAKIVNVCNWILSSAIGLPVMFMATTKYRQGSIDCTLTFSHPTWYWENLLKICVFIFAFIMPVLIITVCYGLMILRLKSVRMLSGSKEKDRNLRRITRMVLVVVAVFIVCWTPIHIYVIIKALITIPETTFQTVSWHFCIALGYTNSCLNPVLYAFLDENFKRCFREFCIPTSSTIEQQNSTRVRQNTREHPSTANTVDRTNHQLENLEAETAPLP

Columns and labels:
[1] = biological target: δ-opioid receptors (Rattus norvegicus, UniProt P33533); settings: read-out: Receptor affinity Ki^δ; reference compounds; ref Balboni et al.[5]; cited from earlier work
[2] = biological target: δ-opioid receptor (Mus musculus, UniProt P32300); settings: read-out: MVD IC50; δ agonism; ref Balboni et al.[5]; cited from earlier work
[3] = biological target: μ-opioid receptors (Rattus norvegicus, UniProt P33535); settings: read-out: Receptor affinity Ki^μ; reference compounds; ref Balboni et al.[5]; cited from earlier work

For H-Dmt-Tic-NH-CH2-Bid [Compound 3], the Ki [1] is listed as 0.035 nM, the IC50 [2] is listed as 0.13 nM and the Ki [3] is listed as 0.5 nM.
